The chains behind the UniProt entries cited, without tags or fusion partners.
UniProt Q06187, whole entry: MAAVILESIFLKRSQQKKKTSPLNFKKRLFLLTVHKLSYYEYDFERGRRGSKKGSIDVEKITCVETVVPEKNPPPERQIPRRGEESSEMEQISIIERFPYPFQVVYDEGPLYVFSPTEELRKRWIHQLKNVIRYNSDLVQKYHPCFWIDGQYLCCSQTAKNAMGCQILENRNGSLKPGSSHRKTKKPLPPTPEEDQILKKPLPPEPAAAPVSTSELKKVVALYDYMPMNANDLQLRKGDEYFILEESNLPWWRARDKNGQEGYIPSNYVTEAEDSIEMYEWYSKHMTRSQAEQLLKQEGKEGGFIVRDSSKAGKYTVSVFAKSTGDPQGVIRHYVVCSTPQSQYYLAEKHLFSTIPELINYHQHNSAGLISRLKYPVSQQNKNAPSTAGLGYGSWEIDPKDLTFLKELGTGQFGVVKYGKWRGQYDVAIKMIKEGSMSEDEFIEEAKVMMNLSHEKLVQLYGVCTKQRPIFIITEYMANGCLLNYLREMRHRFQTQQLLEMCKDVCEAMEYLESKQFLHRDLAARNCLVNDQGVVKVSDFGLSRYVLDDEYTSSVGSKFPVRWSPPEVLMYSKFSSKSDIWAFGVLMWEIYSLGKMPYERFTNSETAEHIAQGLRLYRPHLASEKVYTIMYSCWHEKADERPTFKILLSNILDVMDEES

In patent publication US8476430B2, “Fused heterocyclic compounds useful as kinase modulators” (Bristol-Myers Squibb Company, priority 2008, dated 2013):

Columns and labels:
[1] = target: human recombinant Btk (Homo sapiens, UniProt Q06187); assay: Human recombinant Btk enzyme assay; settings: human recombinant Btk 1 nM, ATP 20 μM, 60 min room temperature
Experimental: Human Recombinant Btk Enzyme Assay
To V-bottom 384-well plates were added test compounds, human recombinant Btk (1 nM, Invitrogen Corporation), fluoresceinated peptide (1.5 μM), ATP (20 μM), and assay buffer (20 mM HEPES pH 7.4, 10 mM MgCl2, 0.015% Brij35 and 4 mM DTT in 1.6% DMSO), with a final volume of 30 μL. After incubating at room temperature for 60 min, the reaction was terminated by adding 45 μl of 35 mM EDTA to each sample. The reaction mixture was analyzed on the Caliper LABCHIP® 3000 (Caliper, Hopkinton, Mass.) by electrophoretic separation of the fluorescent substrate and phosphorylated product. Inhibition data were calculated by comparison to no enzyme control reactions for 100% inhibition and no inhibitor controls for 0% inhibition. Dose response curves were generated to determine the concentration required inhibiting 50% of kinase activity (IC50). Compounds were dissolved at 10 mM in dimethylsulfoxide (DMSO) and evaluated at eleven concentrations.

[2] = tested on: Ramos RA1 B cells; assay: Ramos FLIPR assay; settings: read-out: Human Ramos Cell FLIPR (IC50 μM); inhibition of peak intracellular calcium after F(ab')2 anti-IgM/IgG stimulation
Experimental: Ramos RA1 B cells (ATCC® CRL-1596) at a density of 2×10^6 cells/ml in RPMI minus phenol red (Invitrogen 11835-030) and 50 mM HEPES (Invitrogen 15630-130) containing 0.1% BSA (Sigma A8577) were added to one half volume of calcium loading buffer (BD bulk kit for probenecid sensitive assays, #640177) and incubated at room temperature in the dark for 1 hour. Dye-loaded cells were pelleted (Beckmann GS-CKR, 1200 rpm, RT, 5 minutes) and resuspended in RT RPMI minus phenol red with 50 mM HEPES and 10% FBS to a density of 1×10^6 cells/ml. 150 μl aliquots (150,000/well) were plated into 96 well poly-D-lysine coated assay plates (BD 35 4640) and briefly centrifuged (Beckmann GS-CKR 800 rpm, 5 minutes, without brake). 50 μal compound dilutions in 0.4% DMSO/RPMI minus phenol red+50 mM HEPES+10% FBS were added to the wells and the plate was incubated at RT in the dark for 1 hour. Assay plate was briefly centrifuged as above prior to measuring calcium levels.
Using the FLIPR1 (Molecular devices), cells were stimulated by adding 50 μl 200 μg/ml F(ab′)2 anti-IgM/IgG (Jackson ImmunoResearch 109-006-127) diluted in 1×HBSS (Invitrogen 14025-076), 50 mM HEPES, 0.1% BSA. Changes in intracellular calcium concentrations were measured for 180 seconds and percent inhibition was determined relative to peak calcium levels seen in the presence of F(ab′)2 anti-IgM/IgG only.

[3] = target: Btk (pY551) in Ramos cells (Homo sapiens, UniProt Q06187); assay: Btk phosphorylation assay; settings: read-out: IC50 value, Btk phosphorylation, 1 hr preincubation, anti-human IgM+IgG 50 μg/mL 2 min, Alexa647 anti-Btk (pY551) MFI
Experimental: Btk Phosphorylation Assay
Ramos cells (˜6×10^6 cells/ml) were incubated in the presence of Btk inhibitors for 1 hr at 37° C. before being stimulated with anti-human IgM+IgG (F(ab′)2 fragment, Jackson ImmunoResearch, catalog #109-006-127) at 50 μg/mL for exactly 2 min at 37° C. Cells were immediately fixed by adding an equal volume of pre-warmed BD PhosFlow Fix buffer I (BD Biosciences, catalog number 557870) to the cell suspension. After incubating at 37° C. for 10 minutes, the cells were washed once with 3 mL FACS washing buffer (1% FBS/PBS) and permeabilized by adding 0.5 mL of cold BD PhosFlow Perm Buffer III (BD Biosciences, catalog number 558050) and incubating for 30 minutes on ice. The cells were washed an additional two times with 3 mL BD FACS washing buffer, re-suspended in 100 μl FACS washing buffer, stained with 20 L Alexa647 anti-Btk (pY551) (BD Biosciences, catalog number 558134), incubated at room temperature for 30 minutes in the dark, and washed once with 3 ml of FACS washing buffer. The cells were re-suspended in 400 μl FACS wash buffer and analyzed using FACSCalibur (BD Biosciences). Median fluorescent intensity (MFI) on Alexa 647 (FL-4) data were collected and used for calculations of inhibition.

Row | Structure (SMILES) | IC50 [1] | IC50 [2] | IC50 [3]
1 | Cc1c(NC(=O)c2ccc(C(C)(C)O)cc2)cccc1-c1nc(Nc2ccc(C(=O)N3CCOCC3)cc2)c2nccn2n1 | 340 nM | 0.3 µM | –
2 | Cc1c(NC(=O)c2ccc(C(C)C)cc2)cccc1-c1nc(Nc2ccc(C(=O)N3CCOCC3)cc2)c2nccn2n1 | – | – | 320 nM
3 | Cc1c(NC(=O)c2ccc(N(C)C)cc2)cccc1-c1nc(Nc2ccc(C(=O)N3CCOCC3)cc2)c2ncc(N)n2n1 | 30 nM | – | –
4 | Cc1c(NC(=O)c2ccc(N3CCCC3)cc2)cccc1-c1nc(Nc2ccc(C(=O)N3CCOCC3)cc2)c2nccn2n1 | 362 nM | 0.515 µM | –
5 | Cc1c(NC(=O)c2ccc(C(F)(F)F)cc2)cccc1-c1nc(Nc2ccc(C(=O)N3CCOCC3)cc2)c2nccn2n1 | 1350 nM | 1.99 µM | –
6 | Cc1c(NC(=O)c2ccc(C3CC3)cc2)cccc1-c1nc(Nc2ccc(C(=O)N3CCOCC3)cc2)c2nccn2n1 | 113 nM | 0.264 µM | –
